Literature values as cited in PMC10353187, “Discovery of a new potent oxindole multi-kinase inhibitor among a series of designed 3-alkenyl-oxindoles with ancillary carbonic anhydrase inhibitory activity as antiproliferative agents” (BMC Chemistry, 2023).
pIC50: −log10 of the molar value.

Test system: VEGFRII
Conditions: VEGFR-2, inhibitor co-crystallized in PDB ID: 4ASD; ref 4 (supplement); cited from earlier work

Structure (SMILES): CNC(=O)c1cc(Oc2ccc(NC(=O)Nc3ccc(Cl)c(C(F)(F)F)c3)cc2)ccn1 [sorafenib]
- pIC50: 7.05
